For assay [1], the target named is T1, Motilin receptor (Oryctolagus cuniculus, UniProt A5A4K8). The assay is described as follows: Inhibition of [125]I-motilin binding to rabbit motilin receptor. A digest of the protocol: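 Rabbit colon membranes, homogenized in Tris–HCl pH 7.5 and centrifuged, with the pellet stored frozen. Binding was run in HEPES pH 7.0 with 15 mg/mL BSA, protease inhibitors and 125I-porcine motilin (50,000–70,000 cpm; 2000 Ci/mmol) for 60 min at 30 °C. Bound tracer was separated by centrifugation. Nonspecific binding was taken with unlabeled porcine motilin. IC50 values are means of at least two separate determinations.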

Amino acid sequences for entries named in this document (tags omitted).
UniProt A5A4K8, whole entry: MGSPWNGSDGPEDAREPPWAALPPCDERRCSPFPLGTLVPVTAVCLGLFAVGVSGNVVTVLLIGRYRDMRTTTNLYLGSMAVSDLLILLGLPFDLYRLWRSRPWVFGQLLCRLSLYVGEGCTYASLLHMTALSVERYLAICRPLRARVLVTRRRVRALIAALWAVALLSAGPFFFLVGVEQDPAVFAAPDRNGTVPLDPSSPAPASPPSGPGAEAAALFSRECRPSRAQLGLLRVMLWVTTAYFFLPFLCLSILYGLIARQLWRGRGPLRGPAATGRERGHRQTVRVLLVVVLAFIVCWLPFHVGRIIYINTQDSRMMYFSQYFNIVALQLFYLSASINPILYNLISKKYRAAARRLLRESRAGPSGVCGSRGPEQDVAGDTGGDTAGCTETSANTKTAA

Assay [2] addresses T1, Motilin receptor. The assay is described as follows: Activity at rabbit duodenum motilin receptor by tissue contractility assay. The assay is classed as functional.

By IC50 is commonly meant the concentration at which inhibition is half-maximal. High values mean a need for much substance, low ones inhibition by little substance. Regarding `CC(C)(C)C(=O)N(Cc1ccccc1)[C@@H]1CCC[C@H](CN(C(=O)c2ccc(F)cc2)c2cccc(OCCN3CCCC3)c2)C1`, the IC50 at Motilin receptor [1] was determined as 10 nM; at Motilin receptor [2], 8 nM.
The like results for `CC(C)(C)C(=O)N(Cc1ccccc1)[C@H]1CCC[C@@H](CN(C(=O)c2ccc(F)cc2)c2cccc(OCCN3CCCC3)c2)C1` were, in that order, 72 nM and 638 nM.
For the compound `CC(C)(C)C(=O)N(Cc1ccccc1)C1CCCC(CN(C(=O)c2ccc(F)cc2)c2cccc(OCCN3CCCC3)c2)C1` (racemic), half-maximal inhibition against Motilin receptor [2] (IC50) was put at 24 nM.

Source of the values: ChEMBL document CHEMBL1138069, “Synthesis and SAR of 1,3-disubstituted cyclohexylmethyl urea and amide derivatives as non-peptidic motilin receptor antagonists” (Bioorg Med Chem Lett, 2006).
